Tested on: adult rheumatoid arthritis patients naive to MTX
Test: Prospective longitudinal MTX dose escalation study: occurrence of side-effects (Example 2)
[1] = ATIC 347G/G vs. ATIC 347C/C or C/G
[2] = GGH -401C/C vs. GGH -401T/T or C/T

SMILES: CN(Cc1cnc2nc(N)nc(N)c2n1)c1ccc(C(=O)N[C@@H](CCC(=O)O)C(=O)O)cc1 [MTX, methotrexate]
- Estimate, percentage of 4 week periods with all side-effects [1]: 0.26 ± 0.13
- Estimate, percentage of 4 week periods with central nervous system side-effects [1]: 0.27 ± 0.11
- Estimate, percentage of 4 week periods with gastrointestinal side-effects [1]: 0.27 ± 0.11
- Estimate, percentage of 4 week periods with central nervous system side-effects [2]: 0.24 ± 0.10
- Estimate, percentage of 4 week periods with gastrointestinal side-effects [2]: 0.31 ± 0.09
- Estimate, percentage of 4 week periods with all side-effects (GGH -401C/C vs. GGH -401T/T or C/T, multivariate analysis): 0.38 ± 0.10
